The source of these data is PubChem BioAssay AID619 (University of Pittsburgh Molecular Library Screening Center, 2007).

Protein sequences, listed by entry. Tags and fused reporters are not part of them.
UniProt P53350, whole entry: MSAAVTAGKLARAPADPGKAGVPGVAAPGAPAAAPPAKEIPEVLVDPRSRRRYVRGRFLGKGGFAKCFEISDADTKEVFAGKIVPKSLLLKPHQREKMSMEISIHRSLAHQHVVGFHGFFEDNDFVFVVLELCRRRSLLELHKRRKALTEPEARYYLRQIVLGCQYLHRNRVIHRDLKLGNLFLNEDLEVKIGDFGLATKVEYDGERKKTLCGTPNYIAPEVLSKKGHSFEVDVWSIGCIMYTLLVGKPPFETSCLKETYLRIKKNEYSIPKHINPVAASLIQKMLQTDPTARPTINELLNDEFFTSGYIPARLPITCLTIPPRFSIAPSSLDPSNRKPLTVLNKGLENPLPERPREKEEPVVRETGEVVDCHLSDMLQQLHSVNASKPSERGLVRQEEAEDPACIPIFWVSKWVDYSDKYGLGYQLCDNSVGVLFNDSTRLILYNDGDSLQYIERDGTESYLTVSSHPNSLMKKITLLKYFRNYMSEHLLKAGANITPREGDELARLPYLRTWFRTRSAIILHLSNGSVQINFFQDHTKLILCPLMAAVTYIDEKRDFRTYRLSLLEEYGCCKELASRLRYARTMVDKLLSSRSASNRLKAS

Molecules are shown by their SMILES. This is a selection; strong and weak results do not stand in their true shares. Some results for these compounds are left out of this collection, so the calls shown say nothing about other tests. The source made the active and inactive calls.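 The calls were made as follows: active = inhibition of 50% or more in the single-concentration screen; inactive = inhibition below 50%.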

The target in this assay is Serine/threonine-protein kinase PLK1 (Homo sapiens) (UniProt P53350). The assay can be described thus: human PLK1 kinase inhibitors, primary screen, biochemical, TR-FRET (AID 619).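 Also: 0% = DMSO max control and 100% = H-89 dihydrochloride min control.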 As to conditions: recombinant PLK1 kinase, TR-FRET peptide phosphorylation; at 10 µM; stronger effect = higher value. For orientation: TR-FRET usually uses a lanthanide donor and a delayed reading to cut background.
Consider `CN(C)c1cccc(C(=O)NCC2(N(C)C)CCCCC2)c1`, for which the inhibition was inactive: -17.2%.

As to `O=C(OC1CN2CCC1CC2)C(CO)(c1ccccc1)c1ccccc1` (stereo not drawn), the inhibition was inactive: -6.58%.

For `CC(C)N1C(=O)CC2(CCN(CCOC(=O)C(O)(c3ccccc3)c3ccccc3)CC2)C1=O`, the inhibition was inactive: -10.2%.

As a reminder, the inhibition is the change of the read-out against control, counted positive when it falls.
